# Source: PubChem BioAssay AID1851 (National Center for Advancing Translational Sciences (NCATS), 2009)
# By UniProt entry, the sequences of proteins in these tests, tags left out.
# UniProt P05177, whole entry, looked up: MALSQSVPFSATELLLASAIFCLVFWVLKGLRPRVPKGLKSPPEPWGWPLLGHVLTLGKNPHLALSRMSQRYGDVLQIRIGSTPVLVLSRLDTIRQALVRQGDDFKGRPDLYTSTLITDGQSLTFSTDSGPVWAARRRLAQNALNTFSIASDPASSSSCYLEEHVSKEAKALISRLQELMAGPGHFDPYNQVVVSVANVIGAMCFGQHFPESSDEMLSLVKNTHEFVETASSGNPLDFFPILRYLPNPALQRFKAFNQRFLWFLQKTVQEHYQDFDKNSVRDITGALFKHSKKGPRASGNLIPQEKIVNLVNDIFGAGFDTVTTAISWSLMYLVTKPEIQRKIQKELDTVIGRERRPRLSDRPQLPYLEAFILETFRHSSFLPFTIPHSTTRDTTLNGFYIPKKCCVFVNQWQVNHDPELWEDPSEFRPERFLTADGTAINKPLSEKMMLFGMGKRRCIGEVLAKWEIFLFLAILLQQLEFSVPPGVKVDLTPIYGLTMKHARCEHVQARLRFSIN
# Only a part is listed here, and it is no random draw. Inconclusive results are not listed. The source made the active and inactive calls. The call rests on the fitted dose curve; in most records, active means well fitted curve in the direction sought with a large enough effect; inconclusive means small, poorly fitted or top-dose-only effect, or effect the other way; inactive means no such curve, though single readings can be large or run the other way.
# Biological target: Cytochrome P450 1A2 (Homo sapiens) (UniProt P05177)
# Assay: Cytochrome panel assay with activity outcomes
# Settings: recombinant CYP, pro-luciferin dealkylation, luminescence; p450-cyp1a2
row,Compound,AC50
1,COc1cc(N[C@@H](C)CCCN)c2ncccc2c1,active: 200 nM
